Patent US20070218504A1, “HUMAN LEPTIN-DERIVED POLYPEPTIDES AND USES THEREOF” (UNIVERSITY OF PITTSBURGH, priority 2006, published 2007)

Tested on: tyrosine phosphorylation of STAT3
Experiment: Leptin-induced tyrosine phosphorylation of STAT3 in HEK293 cells over-expressing OB-Rb in the presence of CRP (Western blot)
Assay type: cell-based, human
Details: separate control, concentrations much higher than CRP
Experimental: To determine if the interaction between CRP and leptin dampens the cellular actions of leptin, the ability of leptin to stimulate tyrosine phosphorylation of STAT3 and PI3-kinase activity was assessed in the presence of CRP in vitro. HEK293 cells over-expressing OB-Rb were serum starved for 2 hours before addition of leptin and CRP (CHEMICON or EMD Biosciences). Leptin, in the presence or absence of CRP, was pre-incubated in μ-MEM (with additional 1 mM Ca^2+) for 30 minutes at 37° C. before being applied to the cells. After a 30-minute incubation with leptin, the cells were harvested in lysis buffer (18). The resultant protein extract was subjected to a Western blot analysis using an anti-phospho-STAT3 specific antibody (Cell Signaling, Beverly, Mass.). For studies involving primary hypothalamic neurons, the hypothalamus from rats was surgically isolated immediately after euthanasia, and placed in the DMEM for incubation with leptin in the presence or absence of CRP.

human serum albumin: control serum protein [reference compound]
effect of control serum protein on leptin-induced STAT3 phosphorylation / leptin signaling: no appreciable effect
